# Data from PubChem BioAssay AID504766 (The Scripps Research Institute Molecular Screening Center, 2011).
# By UniProt entry, the sequences of proteins in these tests, tags left out. Where a name states a change or a piece, a line headed by the entry shows the natural chain unless it says otherwise.
# UniProt P51843: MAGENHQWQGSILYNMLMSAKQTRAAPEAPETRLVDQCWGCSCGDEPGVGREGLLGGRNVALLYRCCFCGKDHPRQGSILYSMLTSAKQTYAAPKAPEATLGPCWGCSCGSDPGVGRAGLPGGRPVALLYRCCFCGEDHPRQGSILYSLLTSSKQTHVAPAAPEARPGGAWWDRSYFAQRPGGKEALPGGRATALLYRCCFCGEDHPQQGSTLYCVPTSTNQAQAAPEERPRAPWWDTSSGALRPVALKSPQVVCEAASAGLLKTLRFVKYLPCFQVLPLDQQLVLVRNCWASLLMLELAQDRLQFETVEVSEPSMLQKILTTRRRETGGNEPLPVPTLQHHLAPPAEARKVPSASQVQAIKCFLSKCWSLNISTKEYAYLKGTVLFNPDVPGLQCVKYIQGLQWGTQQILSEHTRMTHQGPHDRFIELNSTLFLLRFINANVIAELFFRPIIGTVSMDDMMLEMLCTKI
# The entries are a selection whose mix differs from that of the whole data set. Active and inactive are the calls of the source.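 Rule for the calls: active = inhibition above the mean over all tested compounds plus 3 SD (cut at about 4.2% in these data); inactive = the rest.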
# Target: Nuclear receptor subfamily 0 group B member 1 (Homo sapiens) (UniProt P51843)
# Assay: DAX1 (NR0B1) inhibitors, primary screen, cell-based, HEK293, Gal4-DAX1, luciferase luminescence (AID 504766);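 note: 0% = DAX1-transfected cells with DMSO and 100% = empty-vector control cells with DMSO; inhibition shows as a rise in luminescence from relieved DAX1 repression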
# Details: HEK293 Gal4-DAX1 luciferase reporter, at 6.75 µM, hits give high values
row,SMILES,inhibition
1,O=[N+]([O-])c1cc([N+](=O)[O-])c(CCNc2ccccc2)c([N+](=O)[O-])c1,inactive: -0.91%
2,CCc1nc2c(n1)c1c(non1O)c1c2no[n+]1[O-],inactive: -0.81%
3,CC(C)(C)C(=O)NC(Sc1ccncn1)C(Cl)(Cl)Cl (stereo unspecified),inactive: 1.21%
4,O=[N+]([O-])c1ncn(CCn2ncnc2[N+](=O)[O-])n1,inactive: 0.45%
5,O=[N+]([O-])c1cccc(NC2=NCC(CBr)S2)c1 (stereo unspecified),inactive: -0.25%
6,COC(=O)C1(C)COP(=O)(Nc2ccccc2)OC1 (stereo unspecified),inactive: 2.33%
7,O=C(O)CNc1ccc([As](=O)(O)O)cc1,inactive: -0.96%
8,O=P1(N(CCCl)CCCl)OCCCS1 (stereo unspecified),inactive: -0.27%
9,O=C(Nc1cc([As](=O)(O)O)ccc1O)c1ccccc1,inactive: 0.99%
10,CCN(N=Nc1nonc1N)c1nonc1N,inactive: 1.67%
11,Nc1cccc2ccc([As](=O)(O)O)cc12,inactive: -1.06%
12,O=C(O)c1ccccc1[As](=O)(O)O,inactive: 0.93%
13,CC(=O)Nc1ccc([As](=O)(O)O)cc1,inactive: -0.57%
14,CCCC1OP(N)(=O)OCC1CC (stereo unspecified),inactive: 1.68%
15,CN(C)P(=O)(N(C)C)n1c(Nc2ccccc2)nnc1-c1ccccc1,inactive: 2.16%
16,O=P(Nc1nc2ccc(Cl)cc2s1)(c1ccccc1)c1ccccc1,inactive: 0.94%
17,CCOP(=O)(Nc1ccccc1)OCC,inactive: -0.19%
18,Cc1cc(SC(NC(=O)c2ccc(F)cc2)C(Cl)(Cl)Cl)ncn1 (stereo unspecified),inactive: 0.28%
19,CN(C(=O)Cc1ccc(Cl)c(Cl)c1)[C@H]1CCCC[C@@H]1N1CCCC1,inactive: 0.82%
20,Cc1ccc(NP(=O)(Oc2ccccc2F)Oc2ccccc2F)nc1,inactive: 2.47%
21,CC(C)CC(=O)NC(Sc1ccc(Cl)cc1)C(Cl)(Cl)Cl (stereo unspecified),inactive: -0.99%
22,Nc1cc(N)c2nonc2c1[N+](=O)[O-],inactive: 0.17%
23,Oc1ccccc1CNc1ccccn1,inactive: -0.04%
24,O=C(NC(Sc1ccncn1)C(Cl)(Cl)Cl)c1ccccc1 (stereo unspecified),inactive: -2.07%
25,NC(=O)c1cc([N+](=O)[O-])cc([N+](=O)[O-])c1N,active: 6.72%
26,CN(C(=O)Cc1ccc(Cl)c(Cl)c1)[C@H]1CCCC[C@H]1N1CCCC1,inactive: -0.7%

row,SMILES,inhibition
1,Cc1ccc(N/C(=N/P(=O)(N2CCOCC2)N2CCOCC2)N2CCOCC2)cc1,inactive: -1.68%
2,COc1ccccc1OP(=O)(Nc1ccc(C)cn1)Oc1ccccc1OC,inactive: 0.43%
3,Clc1ccc(Cl)c(NC2=NCC(CBr)S2)c1 (stereo unspecified),inactive: -1.6%
4,CN1CCCC(OC(=O)C(c2ccccc2)c2ccccc2)C1 (stereo unspecified),inactive: -1.06%
5,COc1ccc(N/C(=N/P(=O)(N2CCOCC2)N2CCOCC2)N2CCOCC2)cc1,inactive: -0.18%
6,O=[N+]([O-])c1cc(Oc2ccc([N+](=O)[O-])cc2C(F)(F)F)cc([N+](=O)[O-])c1,inactive: -2.58%
7,O=C(OC1CN2CCC1CC2)C12CC3CC(CC(C3)C1)C2 (stereo unspecified),inactive: -0.47%
8,Cc1cc(=O)[nH]c(N[N+](=O)[O-])n1,inactive: 0.48%
9,Cc1c2c(nc3ccccc13)SC(C(Cl)Cl)C2 (stereo unspecified),inactive: -1.11%
10,COc1ccc2nc(NP(=O)(c3ccccc3)c3ccccc3)sc2c1,inactive: 0%
11,COc1cc(I)ccc1[As](=O)(O)O,inactive: 1.04%
12,O=P1(N(CCCl)CCCl)Nc2ccccc2N1,inactive: 1.44%
13,O=P1(N(CCCl)CCCl)OCCCN1CCCl (stereo unspecified),inactive: 2.08%
14,CC(C)c1ccc(OP(=O)(Nc2ccccn2)Oc2ccccc2F)cc1 (stereo unspecified),inactive: 0.25%
15,COC(=O)C1(C)COP(=O)(N2CCCCCC2)OC1 (stereo unspecified),inactive: 0.68%
16,ClCCSc1nnc(-c2cccnc2)o1,inactive: 2.42%
17,O=C(OC1CN2CCC1CC2)c1cccc2[nH]cnc12 (stereo unspecified),inactive: 2.91%
18,CCN(CC)C(=S)SC(NC=O)C(Cl)(Cl)Cl (stereo unspecified),inactive: -1.03%
19,O=[N+]([O-])c1cc([N+](=O)[O-])c(-c2ccn[nH]2)s1,inactive: -1.25%
20,O=[As](O)(c1ccc(O)cc1)c1ccccc1O,inactive: 2.53%
21,C[As](=O)(O)c1cccc(C(=O)O)c1,inactive: 0.47%
22,COc1cc(C(=O)NCC2(N3CCOCC3)CCCCC2)ccc1OCC(C)C,inactive: -0.42%
23,O=[N+]([O-])c1ccc(-c2cc([N+](=O)[O-])c(O)c([N+](=O)[O-])c2)cc1,inactive: 0.94%
24,Cc1ccc2nc3c(c(C)c2c1)CC(C(Cl)Cl)S3 (stereo unspecified),inactive: 0.55%
25,Cc1ccc(OP(=O)(Nc2ccc([N+](=O)[O-])cn2)Oc2ccc(C)cc2)cc1,inactive: 0.83%
